The source made the active and inactive calls. No cut-off for these calls is given here.

Amino acid sequences for entries named in this document (tags omitted).
UniProt P40337, whole entry, looked up: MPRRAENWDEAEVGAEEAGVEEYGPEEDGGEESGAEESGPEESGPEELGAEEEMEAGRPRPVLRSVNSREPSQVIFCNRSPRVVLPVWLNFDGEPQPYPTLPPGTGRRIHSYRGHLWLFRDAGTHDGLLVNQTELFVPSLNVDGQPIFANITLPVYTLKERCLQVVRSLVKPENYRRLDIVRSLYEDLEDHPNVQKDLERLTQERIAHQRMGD
UniProt P25440, whole entry, looked up: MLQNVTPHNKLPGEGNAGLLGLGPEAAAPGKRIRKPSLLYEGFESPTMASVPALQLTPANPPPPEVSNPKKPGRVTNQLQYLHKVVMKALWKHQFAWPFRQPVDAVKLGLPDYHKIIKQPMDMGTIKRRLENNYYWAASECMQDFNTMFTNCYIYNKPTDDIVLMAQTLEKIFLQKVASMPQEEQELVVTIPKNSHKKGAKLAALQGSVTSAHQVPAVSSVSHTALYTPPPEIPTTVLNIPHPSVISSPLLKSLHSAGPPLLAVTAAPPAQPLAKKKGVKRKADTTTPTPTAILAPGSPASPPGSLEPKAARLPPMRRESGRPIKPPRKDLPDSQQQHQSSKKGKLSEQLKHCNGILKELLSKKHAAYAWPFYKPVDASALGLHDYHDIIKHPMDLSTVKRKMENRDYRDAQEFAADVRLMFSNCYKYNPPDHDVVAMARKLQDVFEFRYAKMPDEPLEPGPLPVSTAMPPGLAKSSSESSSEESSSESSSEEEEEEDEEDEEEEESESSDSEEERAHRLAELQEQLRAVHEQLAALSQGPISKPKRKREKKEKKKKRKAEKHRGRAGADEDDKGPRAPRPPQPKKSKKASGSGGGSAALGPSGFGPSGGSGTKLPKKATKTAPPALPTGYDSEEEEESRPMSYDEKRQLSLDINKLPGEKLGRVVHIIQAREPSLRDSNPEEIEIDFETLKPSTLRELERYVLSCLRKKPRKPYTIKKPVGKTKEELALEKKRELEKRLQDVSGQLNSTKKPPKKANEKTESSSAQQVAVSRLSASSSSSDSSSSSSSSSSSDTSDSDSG

One experiment deals with von Hippel-Lindau disease tumor suppressor/Bromodomain-containing protein 4 (Homo sapiens), O60885+P40337 [L387A]. To be noted: HEK293, dose 200.0 nM, time 3.0 hrs.
In the case of `CC[C@@H](C(=O)OCCOCCOCCOCC(=O)N[C@H](C(=O)N1C[C@H](O)C[C@H]1C(=O)NCc1ccc(-c2scnc2C)cc1)C(C)(C)C)[C@@H]1N=C(c2ccc(Cl)cc2)c2c(sc(C)c2C)-n2c(C)nnc21`, the inhibition result was “Active”.

Another experiment deals with von Hippel-Lindau disease tumor suppressor/Bromodomain-containing protein 2 (Homo sapiens, UniProt P25440+P40337). As to the kind of experiment: Bump and hole PROTAC activity at BromoTag-Brd2/VHL-bound E3 ligase in HEK293 cells assessed as Brd2 degradation at 0.001 to 10 uM measured after 6 hrs by Western blot analysis. Format: cell-based. To be noted: dose 0.001-10 µM.
As to `CCC(C(=O)NCCOCCOCCOCC(=O)N[C@H](C(=O)N1C[C@H](O)C[C@H]1C(=O)NCc1ccc(-c2scnc2C)cc1)C(C)(C)C)C1N=C(c2ccc(Cl)cc2)c2c(sc(C)c2C)-n2c(C)nnc21` (mixture of isomers), the Brd2 degradation activity entry was “Active”. Same read-out and setting: as for `CC[C@@H](C(=O)NCCOCCOCCOCC(=O)N[C@H](C(=O)N1C[C@H](O)C[C@H]1C(=O)NCc1ccc(-c2scnc2C)cc1)C(C)(C)C)[C@@H]1N=C(c2ccc(Cl)cc2)c2c(sc(C)c2C)-n2c(C)nnc21`, the entry is “Active”.

For the molecule `CC[C@@H](C(=O)OCCOCCCOCC(=O)N[C@H](C(=O)N1C[C@H](O)C[C@H]1C(=O)N[C@@H](C)c1ccc(-c2scnc2C)cc1)C(C)(C)C)[C@@H]1N=C(c2ccc(Cl)cc2)c2c(sc(C)c2C)-n2c(C)nnc21`, the Brd2 degradation activity entry is “Active”. As for `CC[C@@H](C(=O)OCCOCCOCCOCC(=O)N[C@H](C(=O)N1C[C@H](O)C[C@H]1C(=O)NCc1ccc(-c2scnc2C)cc1)C(C)(C)C)[C@@H]1N=C(c2ccc(Cl)cc2)c2c(sc(C)c2C)-n2c(C)nnc21`, the Brd2 degradation activity entry is “Active”. With `CCC(C(=O)OCCOCCCOCC(=O)N[C@H](C(=O)N1C[C@H](O)C[C@H]1C(=O)N[C@@H](C)c1ccc(-c2scnc2C)cc1)C(C)(C)C)C1N=C(c2ccc(Cl)cc2)c2c(sc(C)c2C)-n2c(C)nnc21` (mixture of isomers), the Brd2 degradation activity result was “Active”. On to `CCC(C(=O)OCCOCCOCCOCC(=O)N[C@H](C(=O)N1C[C@H](O)C[C@H]1C(=O)NCc1ccc(-c2scnc2C)cc1)C(C)(C)C)C1N=C(c2ccc(Cl)cc2)c2c(sc(C)c2C)-n2c(C)nnc21` (mixture of isomers), for which the Brd2 degradation activity entry is “Active”.

The values are drawn from ChEMBL document CHEMBL5053531, “Development of BromoTag: A "Bump-and-Hole"-PROTAC System to Induce Potent, Rapid, and Selective Degradation of Tagged Target Proteins” (J Med Chem, 2021).
